Literature values in US20070281910A1, “Salicyl alcohol creatine phosphate prodrugs, compositions and uses thereof” (XenoPort, Inc., priority 2006, published 2007).

Details: ALS patients

Nc1nc2ccc(OC(F)(F)F)cc2s1 [riluzole]
extension of survival in ALS: about three
